From US20160193231A1, “RETT SYNDROME AND TREATMENTS THEREFORE” (RETT SYNDROME RESEARCH TRUST, priority 2013, published 2016) come the findings set out here.

SMILES strings stand for the structures. This is a selection: effects in other tests are not listed, and their absence says nothing.

Assay [1] relates to 129.Mecp2^tm1.1Bird/Y mice. Put plainly: Accelerating rotarod task, Mecp2 null males. The following applies: Example 6/FIG. 10; 5 mg/kg IP 2x weekly. Format: in vivo, mouse. Background: The rotarod test checks motor coordination on a turning rod.
Assay [2] relates to 129.Mecp2^tm1.1Bird/Y mice. Description: Open field locomotor activity, Mecp2 null males. The assay is classed as in vivo, mouse. To be noted: Example 6/FIG. 10; 5 mg/kg IP 2x weekly.

For `COc1ccc([N+](=O)[O-])cc1[N+](=O)[O-]`, the “performance in the rotarod assay” value in assay [1] is recorded as “significantly improved performance”. Besides, the “performance in the OFA assay” value in assay [2] is “significantly improved performance”.
